Activity change, negative = inhibition data for 51 compounds are collected here from PubChem BioAssay AID2472 (National Center for Advancing Translational Sciences (NCATS), 2010).

Values joined by “and” are separate entries in the source; they are usually repeats but may differ in a detail not shown here. Equal entries are not always repeated. The list shows a part of the results, in another mix than the full data. Active and inactive are the calls of the source. No stated cut-off is given here; in the data, active means activity change below about -30%; inactive means the rest, inconclusive results apart.
On the % scale 0 is the no-effect control and ±100 the full control effect.

The nature of this test: qHTS Assay for Inhibitors of Fructose-1,6-bisphosphate Aldolase from Giardia Lamblia: Coupling assay counterscreen. The settings on record: coupling enzyme system counterscreen, AmpLite Red fluorescence; at 58.2 µM (top of the series). From the text:
MLPCN Grant: MH085699-01 Assay Provider: Osnat Herzberg, University of Maryland NCGC Assay Overview: The objective of this project is to obtain compounds that inhibit Giardia lamblia growth. G. lamblia is a human pathogen which afflicts impoverished nations; it is the most common cause of outbreaks of diarrhea in the United States. During the course of our study of potential drug targets in Giardia, we have identified the Class II (Zn2+ functions in electrophilic catalysis) fructose-1,6-bisphosphate aldolase (FBPA) as an excellent candidate for drug targeting. FBPA is a key glycolytic pathway enzyme, essential for G. lamblia survival. The human FBPA belongs to the Class I aldolases, which have a different substrate binding site structure and a radically different catalytic mechanism (employing a lysine-Schiff base intermediate). Therefore, affinity-based or mechanism-based inhibitors of the Giardia FBPA are expected not to interfere with the catalytic function of the human FBPA. A glyceraldehyde-3-phosphate dehydrogenase/triose phosphate isomerase/NAD/arsenate coupled assay was adapted to the 1536-well HTP format for use in the primary screen. This was done by coupling it to a diaphorase/resazurin/resorufin reaction that can be monitored by fluorescence (excitation, 544 nm; emission, 590 nm). Compounds identified in this screen will be further evaluated by coupling the […]/triose phosphate isomerase/NADH assay to a phenazine methosulfate/tetranitroblue tetrazolium color reaction. False positives due to the dehydrogenases and diaphorase inhibition will be eliminated, and selectivity assay will triage inhibitors of mammalian triose phosphate isomerase and the Class I FBPA. G. lamblia FBPA inhibitors identified by the in vitro analyses will be examined for growth inhibition of Giardia trophozoites, and for cytotoxicity in human cells. This assay specifically addresses whether activity observed in the primary screen (AID 2451) is related to inhibition of the coupling assay used, as opposed to inhibition of aldolase. Actives in this assay are considered inconclusive for activity against aldolase.
NCGC Assay Protocol: Step,Parameter,Value,Description 1,Coupling enzyme reagent,2 uL,glyceraldehyde-3-phosphate 2,Compound,23 nL,3.68 nM-57.5 uM final concentration 3,Time,10 min,RT Incubation 4,Substrate/detection Reagent,2 uL,Substrate + enzyme coupling system + AmpLite Red kit 5,Time,20 min,RT Incubation 6,Detector,525 nm/598 nm (Fluorescence),ViewLux Fluorescence Read (Read 1) Notes: 1,Medium-binding black solid-bottom Kalypsys plates. FRD or Kalypsys dispenser. 2,Compound Library (10 mM ,1:5 dilution). Pin-transferred for a [final] range of 3.68 nM-57.5 uM. 3,RT incubation 4,FRD or Kalypsys dispenser, 2 uL of reaction mixture. Bottle kept at 4C and covered in foil to protect from light. 5,RT incubation 6,ViewLux Protocol 1194; Excitation filter wheel A (525/20 Pol; BODIPY TMR FP), Emission filter wheel B (598/25 S; BODIPY TMR FP S). Keywords: Fructose-bisphosphate aldolase, FBPA , Giardia lamblia , Giardia, HTS, Inhibitors
(In general: qHTS replaces the single test concentration by a dilution series.)
On to `CC(=O)C1=CCCC2CCC1N2` (stereo unspecified), for which the activity change, negative = inhibition is inactive: 1.33%.
As for `CN(C)C(=O)OCCc1n(C)cc[n+]1C`, the figure is inactive: 0.396%; as for `CC(C)=N/N=C(\N)N[N+](=O)[O-]`, inactive: -2.52%.
Regarding `CCN(/C(=N/P(=O)(N1CCOCC1)N1CCOCC1)N1CCOCC1)c1ccc(OC)cc1`, the activity change, negative = inhibition was inactive: 1.14%.
`C[N+]1=C2C=CC=CC=C2SC12C([N+](=O)[O-])=CC([N+](=O)[O-])=C[C-]2[N+](=O)[O-]` (stereo unspecified): the activity change, negative = inhibition was inactive: -19.6%.
As for `Nc1ccc([As](=O)(O)c2ccc(N)cc2)cc1`, the figure is inactive: 0.531%; as for `O=[N+]([O-])c1cc([N+](=O)[O-])c(CCNc2ccccc2)c([N+](=O)[O-])c1`, inactive: -17.6%; as for `CCc1nc2c(n1)c1c(non1O)c1c2no[n+]1[O-]`, inactive: -26%.
As for `Cc1ccc(NP(=O)(Oc2ccccc2)Oc2ccccc2)nc1`, the figure is inactive: -1.33%.
As to `CC(=O)N1C2C3N(C(C)=O)C1C1N(C(C)=O)C(C(N1C(C)=O)N3C(C)=O)N2C(C)=O`, the activity change, negative = inhibition was inactive: 4.34%.
In the case of `O=[N+]([O-])c1cccc2n[nH]nc12`, the activity change, negative = inhibition is inactive: 2%.
On to `COc1ccc(C2=NCC(CBr)S2)cc1` (stereo unspecified), for which the activity change, negative = inhibition was inactive: 0.589%.
As for `O=C(O)CNc1ccc([As](=O)(O)O)cc1`, the figure is inactive: 4.78%; as for `O=[N+]([O-])c1cccc(NC2=NCC(CBr)S2)c1` (stereo unspecified), inactive: 3.97%; as for `O=[N+]([O-])c1ncn(CCn2ncnc2[N+](=O)[O-])n1`, inactive: -17.9%.
As for `CC(C)(C)C(=O)NC(Sc1ccncn1)C(Cl)(Cl)Cl` (stereo unspecified), the figure is inactive: -1.6%.
In the case of `O=C(Nc1cc([As](=O)(O)O)ccc1O)c1ccccc1`, the activity change, negative = inhibition is inactive: 2.93%.
As for `Nc1cccc2ccc([As](=O)(O)O)cc12`, the figure is inactive: -16%; as for `CCN(N=Nc1nonc1N)c1nonc1N`, inactive: -2.19%.
As for `O=[N+]([O-])c1cc([N+](=O)[O-])c(CCN2CCOCC2)c([N+](=O)[O-])c1`, the figure is active: -32.1%; as for `Cc1ccc(NP(=O)(Oc2ccccc2F)Oc2ccccc2F)nc1`, inactive: 4.6%; as for `Cc1cc(SC(NC(=O)c2ccc(F)cc2)C(Cl)(Cl)Cl)ncn1` (stereo unspecified), inactive: -1.08%.
As for `CCOP(=O)(Nc1ccccc1)OCC`, the figure is inactive: -1.28% and inactive: 0.375%.
On to `O=P(Nc1nc2ccc(Cl)cc2s1)(c1ccccc1)c1ccccc1`, for which the activity change, negative = inhibition was inactive: 9.21%.
Turning to `CC(=O)Nc1ccc([As](=O)(O)O)cc1`, the activity change, negative = inhibition is inactive: 1.11%.
In the case of `O=C(O)c1ccccc1[As](=O)(O)O`, the activity change, negative = inhibition is inactive: -3.83%.
Then `O=C(NC(Sc1ccncn1)C(Cl)(Cl)Cl)c1ccccc1` (stereo unspecified), with inactive: -15.1%; and `Cc1c2non([O-])c-2c(C)[n+](=O)[n+]1[O-]`, with active: -61.3%; and `Oc1ccccc1CNc1ccccn1`, with inactive: -13.2%.
As for `Nc1cc(N)c2nonc2c1[N+](=O)[O-]`, the figure is inactive: -10.6%; as for `CC(C)CC(=O)NC(Sc1ccc(Cl)cc1)C(Cl)(Cl)Cl` (stereo unspecified), inactive: -0.401%.
Regarding `CN1CCCC(OC(=O)C(c2ccccc2)c2ccccc2)C1` (stereo unspecified), the activity change, negative = inhibition was inactive: 3.61%.
Then `Clc1ccc(Cl)c(NC2=NCC(CBr)S2)c1` (stereo unspecified), with inactive: -3.77%; and `Cc1ccc(OP(=O)(Nc2nccs2)Oc2ccc(C)cc2)cc1`, with inactive: -1.26%.
Then `COc1ccccc1OP(=O)(Nc1ccc(C)cn1)Oc1ccccc1OC`, with inactive: -1.47%.
On to `Cc1ccc(N/C(=N/P(=O)(N2CCOCC2)N2CCOCC2)N2CCOCC2)cc1`, for which the activity change, negative = inhibition was inactive: 0.742%.
With `NC(=O)c1cc([N+](=O)[O-])cc([N+](=O)[O-])c1N`, the activity change, negative = inhibition is inactive: 2.15%.
Then `CC(=O)Nc1ccc(Oc2c([N+](=O)[O-])cc([N+](=O)[O-])cc2[N+](=O)[O-])cc1`, with inactive: 17.7%.
Then `CC(=O)Nc1ccc([As](=O)(O)O)c(O)c1`, with inactive: 1.71%; and `C[C@H]1OP(=O)(Oc2ccccc2)C[C@@H]2O[C@@H]21` (stereo partly specified), with inactive: 3.1%; and `C[C@@H]1C=CCP(=O)(Oc2ccccc2)O1` (stereo partly specified), with inactive: 0.348%.
Then `CC(=O)c1ccc(N2CC2c2ccncc2)cc1` (stereo unspecified), with inactive: 2.52%; and `CC(C)(C)C(=O)NC(Sc1ccccc1)C(Cl)(Cl)Cl` (stereo unspecified), with inactive: 2.35%; and `CCOc1ccc(C2=NCC(CBr)S2)cc1` (stereo unspecified), with inactive: -0.82%.
For `O=P1(Nc2nc3ccc(Cl)cc3s2)COc2ccccc2O1` (stereo unspecified), the activity change, negative = inhibition was inactive: 2.06%.
Turning to `O=c1c2cc([N+](=O)[O-])ccc2[nH]c2c([N+](=O)[O-])cc([N+](=O)[O-])cc12`, the activity change, negative = inhibition is inactive: -6.6%.
Then `CN(C)C(=O)Oc1noc2ccccc12`, with inactive: -0.301%.
Then `Cc1ccccc1OP(=O)(Nc1ccccn1)Oc1ccccc1C`, with inactive: 4.38%; and `CCC(=O)N1C2C3N(C(=O)CC)C1C1N(C(=O)CC)C(C(N1C(=O)CC)N3C(=O)CC)N2C(=O)CC`, with inactive: 3.53%; and `O=C(OC1CN2CCC1CC2)c1ccccc1` (stereo unspecified), with inactive: 0.288%.
As for `Cc1ccc(OP(=O)(Nc2ccccn2)Oc2ccc(C)cc2)cc1`, the activity change, negative = inhibition is inactive: -0.445%.
